# Apparent affinities of Ab-14 variants for a coronavirus HR2 peptide

Binding partner: SARS-CoV-2 spike HR2 peptide, sequence PDVDLGDISGINAS.

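The parent was found by panning a naive human phage display library on the peptide. Library AAYL49 holds single substitutions and randomly drawn double and triple substitutions in the CDRs. Affinity was read by AlphaSeq, a pooled yeast mating assay with surface-displayed partners. The frequency of each diploid, read from paired DNA barcodes, reflects how well the two displayed proteins bind. The ratio of observed to expected reads was calibrated, replicate by replicate, on BCL2-family standards whose Kd was known from biolayer interferometry. Each pool was mated in three replicate cultures.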

Parent scFv Ab-14: VH joined to VL by three GGGGS repeats. Changes lie in the heavy chain CDRs alone.
VH: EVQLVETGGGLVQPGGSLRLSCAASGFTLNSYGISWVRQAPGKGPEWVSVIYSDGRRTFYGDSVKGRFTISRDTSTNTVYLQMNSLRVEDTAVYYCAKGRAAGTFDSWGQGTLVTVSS
VL: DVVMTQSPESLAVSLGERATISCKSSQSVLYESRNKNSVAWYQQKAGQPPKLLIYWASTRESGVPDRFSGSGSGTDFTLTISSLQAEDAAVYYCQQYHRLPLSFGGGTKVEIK

Variants are written as CDR1, CDR2 and CDR3 of the heavy chain (limits as in the source). Parent: GFTLNSYGIS, VIYSDGRRTFYGDSVK, GRAAGTFDS.
The read-out is the apparent dissociation constant on a log10 scale (nM): the lower, the stronger.
"nd" marks a missing value. The strain was present, yet no cells mated with the target were sequenced in that replicate, which points to weak or no binding.
Nonspecific signal, from three strains lacking the peptide, appeared in 15% of pairings of library AAYL49, centred on 4.06 (5% of these signals below 2.83); values are not corrected for it. Also given: how often the same scFv was detected with the empty control strains, with their mean in brackets.
In this assay the parent's reference entry averaged 0.65; its copy inside this library read 4.11 (one replicate of three).

| CDR-H1 | CDR-H2 | CDR-H3 | log10 Kd (nM) by replicate | empty controls |
|---|---|---|---|---|
| GFTLNSYGPS | VQYSDGRRTFYGDSVC | GRAAGTFDS | 4.78 nd nd | 1 of 9 (2.75) |
| GFTLNSYGIS | VIYSTGRRTFYGNSVK | GRAAGTFDS | nd nd nd | 1 of 9 (4.16) |
| GFTLNSYGIS | VIYSDNRRTFYGDGVP | GRAAGTFDS | nd nd nd | 0 of 9 |
| YFTLNSYGIS | VIYSDGRRTFYGDSVK | GRAPGTFDL | nd nd 3.98 | 2 of 9 (4.17) |
| GFHLNSYGIS | YIYSDGRRTFYGDSGK | GRAAGTFDS | 5.42 nd nd | 1 of 9 (3.95) |
| GFTLNSYGIS | VIYSDGRRHMYGDSVK | GRAAGTFDS | 1.92 2.83 1.81 | 0 of 9 |
| GFTLNSYGIS | VIVMDGRRTFYGDSVK | GRAAGTFDS | nd 3.48 nd | 2 of 9 (4.09) |
| GFTLNSYGIS | VIYSDGRRTFYGDSFI | GRAAGTMDS | nd nd nd | 1 of 9 (3.73) |
| GFTLNSYGIS | FCYSDGRRTPYGDSVK | GRAAGTFDS | nd nd 5.90 | 5 of 9 (4.01) |
| GFTLNSYGIS | VIYSDYRRTFYGDSVK | GRVAGTFDS | nd nd nd | 1 of 9 (3.73) |
| GFTLNSYGIS | VICSDGRRTFYGDSVK | GRAAGTMDS | nd nd 5.56 | 3 of 9 (4.83) |
| GFTLNSDGIS | VIYSDGCRTFYGDSYK | GRAAGTFDS | nd nd nd | 1 of 9 (4.16) |
| GFTLNSNGIS | VIYSDGRRTFYHDSVK | GRAAGTFDS | 3.03 2.52 2.64 | 1 of 9 (4.08) |
| GFTLCSYGIS | VIYSDGRRTFYGDSPK | GRAACTFDS | nd nd nd | 0 of 9 |
| GFTYNSYGIS | LIYEDGRRTFYGDSVK | GRAAGTFDS | nd nd nd | 0 of 9 |
| GFTLNSYGIS | VIYNDCRRTFYGDSVD | GRAAGTFDS | 3.97 nd nd | 1 of 9 (5.19) |
| GFTLNSYGIV | VIYSDGRRVFYGDSVK | GRAYGTFDS | nd 3.38 nd | 1 of 9 (2.87) |
| GFTLNSYGIS | VIYSDGRRAWYGDSVK | GRAAGKFDS | nd 3.63 nd | 5 of 9 (4.38) |
| GFTLNWYGIS | VKYSDGRRTFYGDSVK | GRAAGTFAS | nd nd nd | 0 of 9 |
| GFTLNSYEIS | VIYSDGRLTFYGQSVK | GRAAGTFDS | 6.19 3.86 nd | 7 of 9 (4.54) |
| GFTLNSYGIF | VIYSDGRRTFYGDSVK | GRAAGDFDS | nd nd 3.93 | 0 of 9 |
| GFTLNSYVIS | VIYSDGRREFYGDSWK | GRAAGTFDS | nd nd nd | 0 of 9 |
| GFTLNSYGIS | VIYSDHRRTFRGDGVK | GRAAGTFDS | nd nd nd | 1 of 9 (3.81) |
| GFTLCSYGDS | VIYSDGRRQFYGDSVK | GRAAGTFDS | nd nd nd | 0 of 9 |
| GFTLFSMGIS | VPYSDGRRTFYGDSVK | GRAAGTFDS | nd nd nd | 1 of 9 (4.42) |
| GFTLNSYGIS | VIYSDGRATFYGDSVK | GRFAGTFVS | 5.03 3.50 nd | 0 of 9 |
| GFTNNSYGIS | VGYSDGRRTFYGDSVK | GRAAGTFHS | nd nd nd | 1 of 9 (3.76) |
| AFTLNSYGIS | VIYSDGRRTFYGPSVK | GRAAGTGDS | 3.22 2.59 2.51 | 1 of 9 (4.71) |
| GFTLRSYGIS | VIYSDGRRTFYGDSVK | GAMAGTFDS | 1.58 1.75 1.49 | 2 of 9 (4.55) |
| GFTLNSYGIS | VIQSDGRRTFYIDNVK | GRAAGTFDS | nd nd nd | 1 of 9 (3.82) |
| GFTLNSYGWS | VIYSDGRRTAYGDSVK | GRAAGTFMS | nd nd nd | 0 of 9 |
| GFGLNSYCIS | VIYSDGRRTCYGDSVK | GRAAGTFDS | 1.10 1.34 1.56 | 0 of 9 |
| GLTLPSYGIS | VIYSDGRRTFYGDSVK | GRAAGTSDS | nd nd nd | 0 of 9 |

Extract of 3 entries:

CDR-H1,CDR-H2,CDR-H3,log10 Kd (nM) by replicate,empty controls
GFTLNSYGIS,VIYSDGRATFYGDSVK,GRFAGTFVS,5.03 3.50 nd,0 of 9
GFGLNSYCIS,VIYSDGRRTCYGDSVK,GRAAGTFDS,1.10 1.34 1.56,0 of 9
GFTLNSYGIS,VIYNDCRRTFYGDSVD,GRAAGTFDS,3.97 nd nd,1 of 9 (5.19)

The measurements come from Engelhart et al. 2022 (doi:10.1038/s41597-022-01779-4) through the FLAb antibody collection.